Data on one compound can be found in patent US20060009478A1, “Methods for the treatment of back pain” (priority 2003, published 2006).

For the data set, the system named is patients with moderate to severe chronic pain due to osteoarthritis of the hip or knee. The settings on record: Week 3; 40 mg OXY/d.

As for `COc1ccc2c3c1O[C@H]1C(=O)CC[C@@]4(O)[C@@H](C2)N(C)CC[C@]314` [OXY QID, oxycodone], the “Adverse event Nausea, % of patients” value is recorded as 10.7%.
